How the values were obtained:
kinase of the EGFR = kinase of the EGFR (Homo sapiens, UniProt P00533); conditions: cited from earlier work
[1] = target: T1, interaction between EGFR and p85 (Homo sapiens, UniProt P00533); assay: Mammalian reverse two-hybrid system, secreted β-lactamase reporter (AD-p85-IRES-BD-EGFR); format: cell-based; conditions: 12 hr Dox and AG1478 at indicated concentrations; nitrocefin, 30 min; absorbency at 488 nm; FIG. 5
Experimental: β-lactamase. […] The cells were induced with Dox at a final concentration of 1 μg/ml for 12-24 hrs for reporter protein expression. 50 μl or 100 μl of reaction solution containing 100 mM phosphate, pH 7.0, 10 μM nitrocefin, 0.5 μM oleic acid was added to each well. The reaction was carried out at 37° C. for 30-60 minutes. In some experiments, clavulanic acid, an inhibitor for β-lactamase was added at a concentration of 25 μM. β-lactamase activity was measured as an increase in absorbency at 488 nm.
In obtaining the results shown in FIG. 5, cells that were stably expressing the TetR-KRAB construct, the GFP-β-lactamase construct, and the AD-p85-IRES-BD-EGFR construct were grown in 100 or 50 μl of DMEM without Phenol Red and treated with Dox and the inhibitor AG1478 at the indicated concentrations for 12 hr. The substrate nitrocefin, in 100 or 50 μl of the reaction buffer, was added to each assay. The reaction was carried out for 30 min at 22° C. The activity of the secreted β-lactamase in the medium was directly measured by absorbency at 488 nm in a multi-well plate reader.

[2] = target: T1, interaction between EGFR and p85; format: cell-based; conditions: 293A cells, transient transfection; AG1478 2.5 μM; photomicrographs 48 hrs after treatment; FIG. 4e-4h
Experimental: FIGS. 4e to 4h show visual evaluation of GFP expression. […] Photomicrographs of the cells showing expression of GFP were taken 48 hrs after the treatment of cells. The concentration of AG1478 used was 2.5 μM and that of FK506 was 100 nM.

[3] = target: interaction between the EGFR and p85 (Homo sapiens, UniProt P00533); conditions: 293A cells; 1 μg/ml Dox, 48 hrs; FK506 100 nM, AG1478 2.5 μM; FIG. 3

- β-lactamase activity in the medium (disrupting the interaction between EGFR and p85) [1]: dose-dependent effect
- Visual indication of disruption of interaction by GFP reporter [2]: non-expression of the GFP reporter gene
- Dox-induced GFP expression (GFP reporter gene) [3]: nearly completely antagonized
SMILES: COc1cc2ncnc(Nc3cccc(Cl)c3)c2cc1OC [AG1478]
- Inhibition of the kinase of the EGFR (kinase of the EGFR): potent inhibitor
